Tested on: human platelets
Experiment: MCATS assay of human platelet forces on Ttol=12 pN surface
Settings: healthy donor and CPB donors before and after surgery

Q: With `CC(=O)Oc1ccccc1C(=O)O` [aspirin] as the compound, how does the “influence of CPB surgery on mechano-IC50” value read?
A: The value was “did not influence the mechano-IC50 significantly”.
